Test results reported in PubChem BioAssay AID2550 (Johns Hopkins Ion Channel Center, 2010).
The list shows a part of the results, in another mix than the full data. Activity calls are given as the source filed them.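 Rule for the calls: active = B-score of the integrated fluorescence ratio above library mean plus 3 SD, and starting fluorescence ratio within library mean plus 5 SD; inactive = the rest.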

The chains behind the UniProt entries cited, without tags or fusion partners.
UniProt Q61143, whole entry: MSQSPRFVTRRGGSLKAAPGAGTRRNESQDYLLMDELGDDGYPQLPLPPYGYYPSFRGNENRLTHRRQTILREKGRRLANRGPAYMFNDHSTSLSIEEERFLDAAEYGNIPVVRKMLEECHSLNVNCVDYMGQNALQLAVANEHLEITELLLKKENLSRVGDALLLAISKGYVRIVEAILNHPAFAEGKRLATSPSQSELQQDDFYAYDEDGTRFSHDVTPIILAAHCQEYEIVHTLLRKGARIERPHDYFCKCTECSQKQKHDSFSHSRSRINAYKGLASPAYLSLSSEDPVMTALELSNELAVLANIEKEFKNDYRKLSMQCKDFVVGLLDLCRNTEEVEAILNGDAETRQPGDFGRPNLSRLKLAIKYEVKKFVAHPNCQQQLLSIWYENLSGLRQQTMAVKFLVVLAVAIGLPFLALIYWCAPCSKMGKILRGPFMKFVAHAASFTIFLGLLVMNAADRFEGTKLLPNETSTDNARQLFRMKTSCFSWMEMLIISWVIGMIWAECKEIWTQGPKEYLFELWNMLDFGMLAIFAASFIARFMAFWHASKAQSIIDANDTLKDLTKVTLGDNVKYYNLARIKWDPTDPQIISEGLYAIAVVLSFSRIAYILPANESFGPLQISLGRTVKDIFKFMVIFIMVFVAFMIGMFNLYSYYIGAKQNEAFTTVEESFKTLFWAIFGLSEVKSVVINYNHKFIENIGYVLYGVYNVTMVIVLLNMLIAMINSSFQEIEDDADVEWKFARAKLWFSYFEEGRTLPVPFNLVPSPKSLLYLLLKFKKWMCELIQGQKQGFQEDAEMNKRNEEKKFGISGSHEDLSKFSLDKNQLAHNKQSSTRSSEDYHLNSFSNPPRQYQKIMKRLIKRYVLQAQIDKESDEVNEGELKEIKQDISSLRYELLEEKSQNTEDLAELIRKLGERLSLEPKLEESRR

These compounds were tested against Short transient receptor potential channel 6 (Mus musculus) (UniProt Q61143) (assay: mouse TRPC6 channel activators, primary screen, cell-based, HEK293, membrane potential dye (AID 2550;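 note: higher score means more depolarization so channel activation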)). Conditions: HEK293-TRPC6 membrane potential dye fluorescence; at 10 µM.

| Structure (SMILES) | outcome |
| --- | --- |
| Cc1ccc(OCC(C)C)c(CN(CCCl)CCCl)c1 | inactive |
| CCOC(=O)N1CCC(Nc2cccc(C)c2)CC1 | inactive |
| COc1cc(C(=O)NCC2(N(C)C)CCCCC2)ccc1OC(F)F | inactive |
| COc1ccc(NC2CCN(CCc3ccccc3)CC2)c(OC)c1 | inactive |
| CCOC(=O)N1CCC(Nc2ccc(F)cc2)CC1 | inactive |
| O=C(NCC1(N2CCCCC2)CCCCC1)c1ccc(F)cc1 | inactive |
| CCOc1ccc(C)cc1CN(CCCl)CCCl | inactive |
| N#CC1(Nc2ccccc2)CCN(Cc2ccccc2)CC1 | inactive |
| O=C(OC1CN2CCC1CC2)C1c2ccccc2Oc2ccccc21 (centres undefined) | inactive |
| CCOC(=O)N1CCC(Nc2ccc(OC)cc2)CC1 | inactive |
| Cc1cc(C)cc(N(C(=O)c2ccccc2)C2CCN(C(=O)OC(C)(C)C)CC2)c1 | inactive |
| O=C(NCC1(N2CCCCC2)CCCCC1)c1ccc(Cl)nc1 | inactive |
| O=C(NCC1(N2CCOCC2)CCCCC1)c1cc2ccccc2o1 | inactive |
| CSc1ccccc1C(=O)NCC1(N2CCCCC2)CCCCC1 | inactive |
| CC(C)(C)OC(=O)N1CCC(N(C(=O)c2ccccc2)c2ccc(F)cc2)CC1 | inactive |
| COc1ccc(C(=O)NCC2(N3CCCCC3)CCCCC2)c(OC)c1OC | inactive |
| COc1ccc(C(=O)NCC2(N3CCCCC3)CCCCC2)cc1 | inactive |
| O=C(NCC1(N2CCCCC2)CCCCC1)c1cccs1 | inactive |
| O=C(NCC1(N2CCCCC2)CCCCC1)c1ccc(=O)[nH]c1 | inactive |
| CCCOc1ccc(C(=O)NCC2(N(C)C)CCCCC2)cc1OC | inactive |

| Structure (SMILES) | outcome |
| --- | --- |
| CN1CCC(Nc2cccc(F)c2)CC1 | inactive |
| COc1cc(OC)c(C(=O)NCC2(N(C)C)CCCCC2)cc1OC | inactive |
| CC(C)c1ccc(NC2CCN(C(=O)OC(C)(C)C)CC2)cc1 | inactive |
| CN(C)c1cccc(C(=O)NCC2(N3CCCCC3)CCCCC2)c1 | inactive |
| COc1ccc(CN(CCCl)CCCl)cc1Cl | inactive |
| COc1cc(C(=O)NCC2(N3CCCCC3)CCCCC2)ccc1OC(F)F | inactive |
| O=C(NCC1(N2CCOCC2)CCCCC1)c1cc(=O)[nH]c2ccccc12 | inactive |
| CN1CCN(CCOC(=O)C(O)(c2ccccc2)c2ccccc2)CC1 | inactive |
| COc1ccc(NC2CCN(C(=O)OC(C)(C)C)CC2)cc1 | inactive |
| O=C(NCC1(N2CCCCC2)CCCCC1)c1cccc(C(F)(F)F)c1 | inactive |
| N#CC1(Nc2ccccc2)CCN(CCc2ccccc2)CC1 | inactive |
| CCN1CCC(Nc2ccc(Cl)cc2)CC1 | inactive |
| O=C(NCC1(N2CCCCC2)CCCCC1)c1cccc([N+](=O)[O-])c1 | inactive |
| O=C(NCC1(N2CCCCC2)CCCCC1)c1ccc(OC(F)F)cc1 | inactive |
| CN(C)C1(CNC(=O)c2cccc(C#N)c2)CCCCC1 | inactive |
| CCCN1CCC(Nc2cc(OC)cc(OC)c2)CC1 | inactive |
| c1ccc(CN2CCC(Nc3ccccc3)CC2)cc1 | inactive |
| N#Cc1ccc(C(=O)NCC2(N3CCCCC3)CCCCC2)cc1 | inactive |
| CC(C)(C)OC(=O)N1CCC(N(C(=O)c2ccccc2)c2ccc(Cl)cc2)CC1 | inactive |
| CCc1cc(C(=O)NCC2(N3CCCCC3)CCCCC2)sc1C | inactive |

| Structure (SMILES) | outcome |
| --- | --- |
| O=C(OC1CN2CCC1CC2)C1c2ccccc2C=Cc2ccccc21 (centres undefined) | inactive |
| CCOC(=O)N1CCC(Nc2ccc(C)cc2)CC1 | inactive |
| N/C(=N\O)c1c(N)no[n+]1[O-] | inactive |
| COc1ccc(C(=O)NCC2(N3CCOCC3)CCCCC2)cc1OC | inactive |
| CN1CCC(Nc2ccc(Cl)cc2)CC1 | inactive |
| CCCOc1ccc(C)cc1CN(CCCl)CCCl | inactive |
| COc1cc(OC)cc(C(=O)NCC2(N3CCOCC3)CCCCC2)c1 | inactive |
| COc1cccc(C(=O)N(c2cc(C)cc(C)c2)C2CCN(C(=O)OC(C)(C)C)CC2)c1 | inactive |
| CCC(CO)(C(=O)OC1CN2CCC1CC2)c1ccccc1 (centres undefined) | inactive |
| O=C(O)C1(Nc2ccccc2)CCN(Cc2ccccc2)CC1 | inactive |
| CC(C)(C)OC(=O)N1CCC(Nc2ccccc2)CC1 | inactive |
| CCCOc1ccc(C(=O)NCC2(N(C)C)CCCCC2)cc1 | inactive |
| CN1CCC(Nc2ccc(F)c(Cl)c2)CC1 | inactive |
| CCOc1ncccc1C(=O)NCC1(N2CCOCC2)CCCCC1 | inactive |
| CN(C)c1ccc(C(=O)NCC2(N3CCCCC3)CCCCC2)cc1 | inactive |
| CCN1CCC(Nc2cccc(F)c2)CC1 | inactive |
| Fc1ccccc1NC1CCN(Cc2ccccc2)CC1 | inactive |
| Cc1ccc(C(=O)NCC2(N3CCCCC3)CCCCC2)o1 | inactive |
| COc1cc(OC)cc(C(=O)NCC2(N3CCCCC3)CCCCC2)c1 | inactive |
